# Measured affinities in a library of Ab-14 light chain variants

Target peptide (SARS-CoV-2 spike, HR2 region): PDVDLGDISGINAS

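Designed CDR sequences, proposed from the first random library and measured here. Their group label is 14L_Ctrl (Ctrl: baseline library sampled from a position-specific scoring matrix, with some repeated check sequences). Affinity was read by AlphaSeq, a pooled yeast mating assay with surface-displayed partners. After mating in shaken culture at 30 °C for 16 h, diploids were selected and their barcode pairs sequenced. A regression on co-assayed BCL2-family reference pairs converts the normalised counts of each replicate to an apparent Kd. The assay was run in six technical replicates.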

Ab-14 is the parent antibody, in scFv form: VH, then a 15-residue (Gly4Ser)3 linker, then VL. The heavy chain is unchanged in all variants.
VH: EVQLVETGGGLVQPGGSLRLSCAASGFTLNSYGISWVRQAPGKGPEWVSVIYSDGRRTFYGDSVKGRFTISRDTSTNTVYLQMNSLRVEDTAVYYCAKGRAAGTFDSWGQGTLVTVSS
VL: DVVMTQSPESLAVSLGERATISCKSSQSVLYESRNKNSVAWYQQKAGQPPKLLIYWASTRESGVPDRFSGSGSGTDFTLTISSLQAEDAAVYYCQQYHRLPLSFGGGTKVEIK

Each variant is given by its three light chain CDRs, as the data file delimits them; those of the parent are KSSQSVLYESRNKNSVA, WASTRES, QQYHRLPLS. Scale: log10 of Kd in nM, estimated from mating counts; low values are strong binders. A pair that was not seen in that replicate is written "nd"; this usually means weak binding, but a binder can also be missed. The range of this assay differs from that of the first round, and the authors advise against merging the two. The authors averaged sequences with at least three values out of six and counted those with two or fewer as poor binders. Background: pairings of all light chain designs with three empty control strains gave a value in 4% of cases (median 2.64, 5th percentile 1.59). Values in that range, when seen in few replicates, are hard to tell from nonspecific mating. For each scFv, signals with the empty controls are counted beside the result, with their mean in brackets.

| CDR-L1 | CDR-L2 | CDR-L3 | log10 Kd, replicates | signal with controls |
|---|---|---|---|---|
| KSSQSVLYESDNRNSVA | WASTRES | QQYHRLRLS | nd 2.20 2.22 2.13 1.32 2.99 | 0 of 18 |
| KDSQEVLYESRNKENVA | NASTREV | QQYHRLPLS | -0.09 -0.32 -0.23 -0.44 -0.41 -0.10 | 3 of 18 (2.75) |
| KFSQSVLYESSNKNSLA | WASTRES | QQYHRLPLS | nd nd nd nd nd 1.22 | 0 of 18 |
| KGSQSVLYESRNKNSVA | KASTREE | QQYHRLPLS | 0.18 0.17 0.32 0.01 0.25 0.10 | 2 of 18 (3.37) |
| KSSQSVLYESRNSNSVA | GATTRES | QQYHRLPLS | 0.16 0.26 0.15 0.12 0.15 0.42 | 0 of 18 |
| KSSQSVLYESFNKNSVA | WASTRED | QQYHRLPLS | nd nd nd nd nd nd | 0 of 18 |
| KSQQSVLYESRNKNSVA | WASTRES | QTYHRLPLS | 2.20 nd nd 2.67 nd nd | 0 of 18 |
| KSSQSVLYESRNKNSVA | WASTREP | QAYHRLPLS | 1.81 nd 1.48 1.01 1.00 nd | 0 of 18 |
| KSSQSVLYESRNKNSVA | DASTRES | QQYHRMPLS | 0.80 0.81 0.65 0.70 1.11 0.55 | 0 of 18 |
| KSSQGVMYESRNKNSVA | NASTRES | QQYHRLPLS | 0.15 0.14 -0.09 0.07 0.22 0.19 | 0 of 18 |
| KSSQSVLYESRDKQSVA | WANTRSS | QQYHRLPLS | nd 3.15 0.36 nd nd nd | 0 of 18 |
| KSSQSVLYESRNKNSVA | WASTRES | QQYHRLPDS | nd nd nd nd nd nd | 1 of 18 (1.59) |
| KSSQNVLYESRNRNSVA | WASTRES | QQYHRLDLS | nd nd nd nd nd nd | 0 of 18 |
| KSSQSVLYMERNSNSVA | GASTRES | QQYHRLPLS | 0.42 0.49 0.22 -0.17 0.00 0.49 | 2 of 18 (2.55) |
| KSSPSVLYEGRNKNSVA | WASTRES | QQYFRLPLS | 2.28 1.62 0.70 1.21 2.41 2.42 | 0 of 18 |
| KSSQSMLYESRNKNSVA | SASTRES | QQYHRLPLS | 0.36 0.29 0.25 0.18 0.32 0.45 | 1 of 18 (3.03) |
| KSSMSVLYESRNLNSVA | WASTRES | QNPHRLPLS | nd nd nd nd nd nd | 0 of 18 |
| KSPQSVLMESRNKNSVA | WASTRES | QQYHRLLLS | nd nd nd nd nd nd | 0 of 18 |
| KSSQGVMYESANKNSVA | SASTRES | QQYHRLPLW | 1.48 1.20 1.48 1.12 1.21 0.82 | 1 of 18 (1.97) |
| KSSQSVLYESRNKNSVA | WASHRES | QQYHRLPVS | nd 2.54 nd nd nd nd | 0 of 18 |
| KSSQSFLYESKNLNSVA | WASTRES | QQYHRLPLS | nd nd nd nd nd nd | 0 of 18 |
| KSMQSVLDESRNKNSVA | QASWRES | QQYHRLPLL | nd 0.62 nd 0.83 nd nd | 0 of 18 |
| KSYQSVLYESRDKNAVA | AASTRES | QQYHRLDLS | nd nd nd nd nd nd | 0 of 18 |
| KSSQSVWYESRNKNSVA | PASTRES | QQYHRLPLS | nd 1.24 nd nd nd nd | 0 of 18 |
| KSSQSVLYESRNHNSVA | WADTRES | QQYHRLPLS | nd 1.74 nd 2.40 nd 2.56 | 0 of 18 |
| KSSQSVLYASRNKNSVA | WGSTRES | QQYHRLPLS | 1.19 2.77 1.58 1.00 1.27 1.69 | 2 of 18 (1.98) |
| KSSQSVLYESRNSNSVA | WASTRVS | QQYHRLPLS | 0.54 0.13 0.40 0.18 0.46 0.82 | 0 of 18 |
| KSHQSVLYENRNKNSVA | WASTRES | QQYHRLPLS | nd nd nd nd nd 1.86 | 1 of 18 (0.47) |
| KSGQSVLGESRNKNSVA | WASTRES | QQYHRLPLS | 0.92 1.49 1.38 1.40 1.41 1.45 | 0 of 18 |
| KSSQSVLYESSNLNSVA | WASTRES | QQYHHIPLS | nd 1.99 nd nd 2.76 2.48 | 2 of 18 (1.40) |
| KSSQSVLYESRNKNSVA | RASTRES | QQYHYLPLS | 0.33 0.33 0.07 0.15 0.32 0.05 | 1 of 18 (2.78) |
| KSSQSVLYERLNKNSVA | WASTRES | QQYHRLPLS | 1.52 1.88 1.11 1.46 2.78 nd | 0 of 18 |
| KFSQSVPYESSNKNSVA | WATTRES | QQYHRLPLS | 0.23 nd 0.62 0.53 0.37 0.65 | 0 of 18 |
| KISQSVLYESVNKNSVA | YASTRES | QQYHRLPLS | 1.07 1.01 0.62 0.75 0.87 1.12 | 0 of 18 |
| KDSESVLYESRNKNSIA | MASTRES | QQYHRLPLS | 1.13 0.87 1.50 1.26 0.47 1.05 | 0 of 18 |
| KSSISVQYESRNKNSVA | SASTREI | QQYHRLPLS | 0.57 0.19 0.25 0.03 0.32 0.22 | 1 of 18 (3.59) |
| KSSQSVLYESRNYNSVA | FGSTRAS | QQYHRLPLS | 0.68 0.24 0.03 -0.27 -0.03 0.36 | 1 of 18 (1.62) |
| KNSQSVLYESGNKNSVA | WASTRES | QQYHRLPLS | 0.30 0.69 0.79 0.42 0.77 0.49 | 1 of 18 (2.32) |
| KSSQSTLYESRNGNSVA | GASTRES | QQYHRLPLS | 1.57 1.62 1.38 nd 1.14 0.54 | 0 of 18 |
| TSSQSVYYESRNCNSIA | WASTRES | QQYHRLPLS | nd nd nd nd 2.97 nd | 0 of 18 |
| KSSQSVLYESRNRNSVA | WASTRES | QQYHRQPLS | 2.74 nd 2.26 nd 2.20 nd | 1 of 18 (1.92) |
| KSSQSVLYESRNKNAVA | WASTRES | QQYHRLPLS | 2.64 1.95 nd 1.63 3.19 2.19 | 1 of 18 (2.82) |
| KSSQSVLYESQNKNSVA | GASTRES | QQYHRLPEL | nd nd nd nd nd nd | 1 of 18 (1.56) |
| KSSQSVLYESRNKNSVA | WASTRES | QQYHRLPLK | nd nd nd nd nd nd | 0 of 18 |
| RSSQSVLYESRNKNSVA | WASTRES | QDYHRLPFS | nd nd nd nd nd nd | 0 of 18 |
| KSSQSVLYESRNKGSVA | WASTRES | DQYVRLPLS | nd nd nd 1.20 nd nd | 0 of 18 |
| KSSQSVEYESRNKNSVA | GASTRED | QQYHRLPLS | -0.05 0.04 -0.16 -0.01 -0.08 -0.10 | 0 of 18 |
| KVSQSILYESRNDSSVA | WADTRES | QQYHRLPLS | 2.30 2.19 2.36 2.01 2.73 3.24 | 1 of 18 (2.58) |
| KFSQSGLYESRNKNSVA | WASTRES | QQAHRLPLS | nd nd 1.78 3.49 2.68 1.73 | 0 of 18 |
| KSSQSVLYESRNKNSVA | WASTRES | QQYHRSPLS | nd nd 1.50 2.03 1.51 nd | 0 of 18 |
| KLSQSTLYESRNKNSVA | KASTRES | QQYHRPPLS | nd nd nd nd nd nd | 3 of 18 (2.52) |
| KSSQSVLRNSRNENSVA | WASTRES | QQYHRLPIS | nd nd nd nd nd 2.31 | 0 of 18 |

For reference, 4 entries of the list once more:

| CDR-L1 | CDR-L2 | CDR-L3 | log10 Kd, replicates | signal with controls |
|---|---|---|---|---|
| KSSQGVMYESRNKNSVA | NASTRES | QQYHRLPLS | 0.15 0.14 -0.09 0.07 0.22 0.19 | 0 of 18 |
| KSSQSVWYESRNKNSVA | PASTRES | QQYHRLPLS | nd 1.24 nd nd nd nd | 0 of 18 |
| KFSQSVLYESSNKNSLA | WASTRES | QQYHRLPLS | nd nd nd nd nd 1.22 | 0 of 18 |
| KSSQSVLRNSRNENSVA | WASTRES | QQYHRLPIS | nd nd nd nd nd 2.31 | 0 of 18 |

The measurements come from Li et al. 2023 (doi:10.1038/s41467-023-39022-2) through the FLAb antibody collection.